Apparent affinities of Ab-14 variants for a coronavirus HR2 peptide

Data: MIT Lincoln Laboratory AlphaSeq set, Li et al. 2023, doi:10.1038/s41467-023-39022-2, as distributed in FLAb.

All variants were tested on one target, the spike HR2 peptide PDVDLGDISGINAS (SARS-CoV-2).

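The starting antibody came from a phage panning campaign against this peptide. Designed CDR sequences, proposed from the first random library and measured here. Several design methods are mixed in this list. The assay is AlphaSeq: two haploid yeast populations carry antibody and antigen on their surface. Mating (16 h, 30 °C) was followed by selection of diploids and sequencing of their barcodes. A regression on co-assayed BCL2-family reference pairs converts the normalised counts of each replicate to an apparent Kd. The assay was run in six technical replicates.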

Parent scFv Ab-14: VH joined to VL by the linker GGGGSGGGGSGGGGS. Changes lie in the heavy chain CDRs alone.
VH: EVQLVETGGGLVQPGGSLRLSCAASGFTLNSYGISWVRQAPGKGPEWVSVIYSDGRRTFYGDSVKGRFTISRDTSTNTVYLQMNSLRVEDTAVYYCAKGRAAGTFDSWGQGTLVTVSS
VL: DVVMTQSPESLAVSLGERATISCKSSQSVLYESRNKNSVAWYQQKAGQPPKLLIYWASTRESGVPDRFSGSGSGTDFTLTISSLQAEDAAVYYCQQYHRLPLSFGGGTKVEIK

Variants are written as CDR1, CDR2 and CDR3 of the heavy chain (limits as in the source). Parent: GFTLNSYGIS, VIYSDGRRTFYGDSVK, GRAAGTFDS. This list holds designs with at most six substitutions. Values are apparent Kd, the geometric mean of the replicates that gave a signal; lower means stronger binding. "no signal" means that the variant was in the library but no mating with the target was seen in any replicate; the authors take this as a sign of poor binding, and no number exists. The range of this assay differs from that of the first round, and the authors advise against merging the two.

For GFTLESYGIS | VIYSDGRRTFYADSVK | GTLAGTFDS, the assay gave 1.2 nM (6 of 6 replicates; controls 2 of 18). For GFTLNSYGIS | VIYADTRRTFYGDSVK | GRAAGTNKS, the assay gave no signal (0 of 6 replicates; controls 1 of 18). Variant GFDLNSYGIS | VIYSDGRRTFYQDSVK | GRTAGTFDD gave 8.3 nM (5 of 6 replicates; controls 0 of 18). With GFTLNSYGIS | VIYSDGRRTFYGDSVK | GEAAGRFKS the result was 28 nM (1 of 6 replicates; controls 0 of 18). With GFWLNSYGIS | VIYSDGRRTFYGDSVK | GRNAGTFDS the result was no signal (0 of 6 replicates; controls 0 of 18).

Variant GFTLNSYGIS | VIYSDGRRTFYADRVK | GQTAGTFDK showed 57 nM (6 of 6 replicates; controls 0 of 18). Variant GFSLNEYGIS | VIYSDGRRTFYGDSVK | GRAAVTFDQ gave no signal (0 of 6 replicates; controls 0 of 18). Variant GFTLNSYGIS | VIYSDGRRTFYSDSVK | GYFAGTFDS showed 120 nM (4 of 6 replicates; controls 0 of 18). Variant GFRLNEYGIS | VIYSDGRRTFYGDSVK | GRQAGTFDS showed 1.9 nM (4 of 6 replicates; controls 0 of 18). With GFTLNSYGIS | VIYSDGRRTFYGDSVK | WRAMGTFDS the result was no signal (0 of 6 replicates; controls 0 of 18).

With GFTLNSYGIS | VIYSDGRRTFYYDSVK | GRAALTFDS the result was no signal (0 of 6 replicates; controls 0 of 18). Variant GFMLNQYGIS | VIYSDGRRTFYGDSVK | GRAAGTFDS showed 15 nM (6 of 6 replicates; controls 0 of 18). For GFELNSYGIS | VIYSDGRRTFYIDSVK | GREAGTFDT, the assay gave 600 pM (6 of 6 replicates; controls 0 of 18). Variant GFELNAYGIS | VIYSDGRRTFYADSVK | GRTAGTFDS showed 2.2 nM (6 of 6 replicates; controls 0 of 18). For GFTLNSYGIS | VIYSDGRRTFYSDSVK | GQAAGTFDS, the assay gave 580 pM (6 of 6 replicates; controls 1 of 18).

Variant GFELNMYGIS | VIYSDGRRTMYGDSVK | GRTAGTFDS gave 7.7 nM (6 of 6 replicates; controls 0 of 18). For GFTLNSYGIS | VIYSDGKRVFYGDSVK | GRAAGTFDS, the assay gave no signal (0 of 6 replicates; controls 0 of 18). For HFDLNSYGIS | VIYSDGRRTAYQDSVK | GRAAGTFDS, the assay gave 2.6 nM (6 of 6 replicates; controls 0 of 18). Variant GFDLNTYGIS | VIYSDGMRTFYHDSVK | GRTAGTFDS showed 860 pM (6 of 6 replicates; controls 1 of 18). Variant GFDLNSYGIS | VIYSDGRRTFYGDDVK | GRTAGTFDS gave 7.0 nM (6 of 6 replicates; controls 0 of 18).

For GFTLNEYGIS | VIYSDGIRTFYGDSVK | GRAAGTFDK, the assay gave 1.0 nM (6 of 6 replicates; controls 0 of 18). Variant GFDLNSYGIS | VIYSDGKRTFYGDSVK | GRVAGTFDT showed 3.0 nM (6 of 6 replicates; controls 0 of 18). For GNTLNEYGIS | VIYSDGRRTFYTDSVK | GRFAGTFDS, the assay gave no signal (0 of 6 replicates; controls 0 of 18). Variant GFTLNSYGIS | VIYSDGRRTFYTDSVK | GEAAGTKDS gave no signal (0 of 6 replicates; controls 0 of 18). For GFTLNEYGIS | VIYSDGRRTFYTDIVK | GRFAGTADS, the assay gave 9.1 nM (2 of 6 replicates; controls 0 of 18).

Variant GFQLNNYGIS | VIYSDGRRTFYGDQVK | GRTAGTFDS gave 3.1 nM (1 of 6 replicates; controls 0 of 18). Variant GFYLNSYGIS | VIYSDGRRTFYDDSVK | GHLAGTFDS showed 27 nM (6 of 6 replicates; controls 0 of 18). For MFDLNTYGIS | VIYSDGRRTFYHDSVK | GEAAGTFDS, the assay gave 160 nM (6 of 6 replicates; controls 1 of 18). Variant GFDLNSYGIS | VIYSDGRRTAYGDSVK | GRAAGMFDQ gave no signal (0 of 6 replicates; controls 0 of 18). Variant GFTLNEYGIS | VIYSDGRRTFYGDSVK | GRNAGTFDT showed 1.7 nM (6 of 6 replicates; controls 0 of 18).

Variant GFSLNEYGIS | VIYSDGRRTFYHDSVK | GTAAGTFDS showed 830 pM (6 of 6 replicates; controls 0 of 18). Variant GFSLNEYGIS | VIYSDGRRTFYMDMVK | GRTAGTFDS showed 58 nM (2 of 6 replicates; controls 0 of 18). Variant GFTLNSYGIS | VIYSDGHRTFYGDSVK | GQLAGTFDS showed 4.3 nM (1 of 6 replicates; controls 0 of 18). With GFSLNSYGIS | VIYSDGRRTFYGDSVK | GVAAGTFDS the result was no signal (0 of 6 replicates; controls 0 of 18). Variant GFELNSYGIS | VIYSDGRRTFYSDSVK | GQVAGTFDS gave 1.4 nM (6 of 6 replicates; controls 1 of 18).

Excerpt, the first 4 entries:

CDR-H1,CDR-H2,CDR-H3,apparent Kd,replicates with signal,control signals
GFTLESYGIS,VIYSDGRRTFYADSVK,GTLAGTFDS,1.2 nM,6/6,2/18
GFTLNSYGIS,VIYADTRRTFYGDSVK,GRAAGTNKS,no signal,0/6,1/18
GFDLNSYGIS,VIYSDGRRTFYQDSVK,GRTAGTFDD,8.3 nM,5/6,0/18
GFTLNSYGIS,VIYSDGRRTFYGDSVK,GEAAGRFKS,28 nM,1/6,0/18

The authors' rule: three or more of the six replicates give a measured affinity, fewer mean a poor binder. Nonspecific signal, from three strains lacking the peptide, appeared in 1% of pairings of all heavy chain designs, centred on 120 nM (5% of these signals below 7.0 nM); values are not corrected for it. Also given: how often the same scFv was detected with the empty control strains.